Molecules are shown by their SMILES. Only a part is listed here, and it is no random draw. Records with an inconclusive call do not appear. Active and inactive are the calls of the source. Calls come from the whole dose curve; cell line not stated here.
Potency is the fitted concentration of half-maximal effect.

The experiment can be described thus: qHTS for Antagonists of gsp, the Etiologic Mutation Responsible for Fibrous Dysplasia/McCune-Albright Syndrome: qHTS. Note: nearly all actives have a fitted effect of over 65% in size. Conditions: gsp-mutant cells, cAMP HTRF, 30 min. (Quantitative high-throughput screening tests each substance at several concentrations.)
For `CN(C)C(=O)c1cc([N+](=O)[O-])cc2c1-c1c(cc([N+](=O)[O-])cc1[N+](=O)[O-])C2=O`, the Potency is active: 39.8 µM.
On to `O=[N+]([O-])c1ccc(O)c(/C=N/Nc2ccc([N+](=O)[O-])cc2[N+](=O)[O-])c1`, for which the Potency is active: 4.47 µM.
As for `O=c1c2cc([N+](=O)[O-])ccc2[nH]c2c([N+](=O)[O-])cc([N+](=O)[O-])cc12`, the Potency is active: 28.2 µM.

The values above are taken from PubChem BioAssay AID624288 (National Center for Advancing Translational Sciences (NCATS), 2012).
